Literature values, collected in patent publication US7579013B2, “Formulations for coated microprojections containing non-volatile counterions” (Alza Corporation, priority 2003, dated 2009).
Some compounds may have been tested in ways that are not shown here.

Conditions: cited from earlier work

For `CCC(=O)N(c1ccccc1)C1CCN(CCc2ccccc2)CC1`, the pKa is listed as 8.5.
